The other results are listed elsewhere or left out. The source made the active and inactive calls.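 The calls were made as follows: active = activation factor of at least 2 at 5 µM in the primary screen; inactive = the rest.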
biological target: Cytochrome P450 2C19 (Homo sapiens) (UniProt P33261); assay: human CYP2C19 activators, primary screen, biochemical, luminescence (AID 1025); details: recombinant CYP2C19, luciferin-H EGE luminescence; at 5 µM; active compounds read high; 0 = fully inhibited enzyme, 1 = untreated enzyme;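 also: 0 = wells with 2.5 mM tranylcypromine and 1 = vehicle-only wells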

Sequences of proteins named here, by UniProt entry; tags and fusion partners are left off.
UniProt P33261, whole entry, looked up: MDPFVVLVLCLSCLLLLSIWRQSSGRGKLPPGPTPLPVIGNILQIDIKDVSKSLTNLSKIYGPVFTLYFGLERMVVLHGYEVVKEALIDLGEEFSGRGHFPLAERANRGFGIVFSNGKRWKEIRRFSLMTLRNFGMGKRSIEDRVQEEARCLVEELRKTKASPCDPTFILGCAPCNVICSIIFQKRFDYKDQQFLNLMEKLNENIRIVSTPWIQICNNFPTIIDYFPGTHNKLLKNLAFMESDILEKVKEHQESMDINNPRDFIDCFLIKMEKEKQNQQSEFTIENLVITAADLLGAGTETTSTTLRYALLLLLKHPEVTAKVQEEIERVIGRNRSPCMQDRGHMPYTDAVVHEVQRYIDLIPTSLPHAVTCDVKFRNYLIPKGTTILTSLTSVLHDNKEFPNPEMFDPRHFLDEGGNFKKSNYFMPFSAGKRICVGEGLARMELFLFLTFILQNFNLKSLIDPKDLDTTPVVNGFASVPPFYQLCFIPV

Compound	activation factor
Cc1ccc(OCC(=O)OC2CN3CCC2CC3)cc1 (stereo not given)	inactive: 1.1
O=P1(Nc2ccc(Br)cn2)COc2ccccc2OC1	inactive: 0.1
O=P1(Nc2ncccn2)COc2ccccc2OC1	inactive: 1.1
Cc1nn(-c2ccccc2)c2c1P(=O)(N1CCOCC1)N(C)C(c1ccccc1)=N2 (stereo not given)	inactive: 0.9
Clc1n[nH]nc1-c1nn[nH][15n]1	inactive: 1
O=P1(Nc2ccccn2)COc2ccccc2OC1	inactive: 0.4
Cc1cccc(OCC(=O)OC2CN3CCC2CC3)c1 (stereo not given)	inactive: 0.9
O=[N+]([O-])c1ccc2c(c1)nnn2O	inactive: 1.1
CCOP1(=S)c2c(C)nn(CCC#N)c2N=C(c2ccc(F)cc2)N1C (stereo not given)	inactive: 0.6
CCOP1(=S)c2c(C)nn(CCC#N)c2N=C(c2ccccc2F)N1C (stereo not given)	inactive: 0.1
O=P(Nc1nccs1)(c1ccccc1)c1nc2ccccc2s1 (stereo not given)	inactive: 0.4
CCN(CC)C(=S)SC(NC=O)C(Cl)(Cl)Cl (stereo not given)	inactive: 0.5
O=C(OC1CN2CCC1CC2)C12CC3CC(CC(C3)C1)C2 (stereo not given)	inactive: 1.1
O=C(COc1ccccc1)OC1CN2CCC1CC2 (stereo not given)	inactive: 1
COP1(=S)c2c(C)nn(CCC#N)c2N=C(c2ccc(F)cc2)N1C (stereo not given)	inactive: 0.6
CC1CCN(C(=O)Oc2c(Cl)cc(Cl)c3cccnc23)CC1	inactive: 0.9
O=[N+]([O-])c1cccc2n[nH]nc12	inactive: 1.1
CC(=O)N1C2C3N(C(C)=O)C1C1N(C(C)=O)C(C(N1C(C)=O)N3C(C)=O)N2C(C)=O	inactive: 0.5
CCc1nc2c(n1)c1c(non1O)c1c2no[n+]1[O-]	inactive: 1
CC(C)CC(=O)NC(Sc1ccc(Cl)cc1)C(Cl)(Cl)Cl (stereo not given)	inactive: 0.2
Oc1ccccc1CNc1ccccn1	inactive: 0.5
Cc1c2non([O-])c-2c(C)[n+](=O)[n+]1[O-]	inactive: 1
CCOP(=O)(Nc1ccccc1)OCC	inactive: 0.9
COC(=O)c1cc2c(s1)N=C(c1ccccc1)N(C)P2(=O)N1CCOCC1 (stereo not given)	inactive: 1
CCC(=O)N1C2C3N(C(=O)CC)C1C1N(C(=O)CC)C(C(N1C(=O)CC)N3C(=O)CC)N2C(=O)CC	inactive: 0.8
CCOC(=O)NC(Sc1ccccc1)C(Cl)(Cl)Cl (stereo not given)	inactive: 0.3
O=P1(Nc2nc3ccc(Cl)cc3s2)COc2ccccc2O1 (stereo not given)	inactive: 0.9
c1nnnn1CCn1cnnn1	inactive: 1
O=P(Nc1nccs1)(c1ccccc1)c1ccccc1	inactive: 1
O=C(OC1CN2CCC1CC2)c1cccc(Cl)c1 (stereo not given)	inactive: 0.9

— PubChem BioAssay AID1025 (Sanford-Burnham Center for Chemical Genomics, 2008)
